Laboratory results published in US10227617B2, “Sequestration of carbon dioxide with hydrogen to useful products” (UNIVERSITY OF GEORGIA RESEARCH FOUNDATION, INC., priority 2012, dated 2019).

Biological target: T1, Metallosphaera sedula acyl-CoA synthetase (4-hydroxybutyrate:CoA ligase) Msed_0394, SEQ ID NO:13, recombinant (Metallosphaera sedula, UniProt A4YDR9)
T1 sequence (A4YDR9 1-549): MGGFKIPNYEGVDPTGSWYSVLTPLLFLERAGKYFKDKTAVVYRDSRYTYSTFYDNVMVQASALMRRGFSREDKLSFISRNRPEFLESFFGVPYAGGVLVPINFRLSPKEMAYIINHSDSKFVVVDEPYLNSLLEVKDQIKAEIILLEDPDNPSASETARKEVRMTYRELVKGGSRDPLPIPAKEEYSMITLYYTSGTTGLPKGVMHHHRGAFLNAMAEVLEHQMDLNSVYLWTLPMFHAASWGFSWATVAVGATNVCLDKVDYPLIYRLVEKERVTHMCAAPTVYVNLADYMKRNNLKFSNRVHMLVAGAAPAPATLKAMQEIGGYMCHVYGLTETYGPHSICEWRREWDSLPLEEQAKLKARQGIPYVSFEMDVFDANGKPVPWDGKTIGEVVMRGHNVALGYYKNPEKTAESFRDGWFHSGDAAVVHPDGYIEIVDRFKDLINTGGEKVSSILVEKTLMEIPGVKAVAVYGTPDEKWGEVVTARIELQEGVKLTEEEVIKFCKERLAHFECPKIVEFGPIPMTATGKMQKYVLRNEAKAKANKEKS
Experiment: 4-hydroxybutyrate-CoA synthetase (acyl-CoA ligase) activity of recombinant Msed_0394, discontinuous DTNB assay
Assay type: biochemical
Conditions: Msed_0394, 75° C., pH 7.9

Work on CC(=O)O [Acetate] yielded a Vmax of 0.13 µmol/min/mg and a kcat of 0.14 s⁻¹.
